Consider two compounds from the supplement of paper PMC12669032.

This list holds what a sample rich in hits left over.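 How the source made its calls: active = AUC reduced over 20% with Padj below 0.05 in at least 2 of 3 replicates; inactive = otherwise.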

The assay deals with Collinsella aerofaciens. The assay can be described thus: growth AUC relative to DMSO control (median of replicates) (fraction); higher = more growth (less inhibition), active = hit call of the paper. The following applies: 20 µM; 24 h. As to the method: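 Anaerobic monocultures of 22 human gut bacterial strains grown at 37 °C in mGAM with 20 µM compound (1% DMSO), starting OD600 0.05. OD600 read hourly for 24 h. Value is the median of 3 biological replicates. Hit: >20% AUC reduction and Padj<0.05 in at least 2 of 3 replicates.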
As to `CCOc1nc(C(Cl)(Cl)Cl)ns1`, the “growth AUC” value was inactive: 0.967. In the case of `CCOP(=S)(OCC)Oc1ncn(-c2ccccc2)n1`, the “growth AUC” value is inactive: 0.993.
